Entries after “also recorded” stand apart in the source; their conditions may differ.
Key:
[1] = test system: S. aureus RN4220; assay: Bacterial growth inhibition assay, S. aureus RN4220; type: cell-based, Staphylococcus aureus
Description: (§1) Compounds were dissolved in DMSO to a final concentration of 20 mM. To determine the compound’s activity against different bacteria, a bacterial culture (E. coli ATCC10536, S. aureus RN4220) was set up to an optical density at 600 nm (OD600) of 0.05 from an overnight culture in Mueller-Hinton broth (Carl Roth). The compound was added in different concentrations ranging from […] to 1 μM. DMSO concentration was constantly adjusted to be 1% in the final culture. Cultures of 200 μL were incubated for 24 h at 37 °C in flat-bottom 96-well polystyrene culture plates (Greiner) using a BioTek Synergy H1 plate reader. Plates were incubated under constant shaking, and absorbance at 600 nm was measured every 20 min. The experiment was performed in three biological replicates with three technical replicates each.

[2] = test system: E. coli ATCC10536; assay: Bacterial growth inhibition assay, E. coli ATCC10536; type: cell-based, Escherichia coli; details: up to 100 μM, growth curves
Description: as §1

[3] = Cell Titer Glo cell viability assay; type: cell-based; details: human
Description: Cell viability assays were conducted with HEK293 cells (ATCC) to investigate the compounds’ mammalian cytotoxicity. Cells were cultured according to standard protocols (DMEM, 10% FBS, 1× Penicillin/Streptomycin, 37 °C, 5% CO2). Cell viability was assessed using the Promega CellTiterGlo assay kit. Briefly, 1000 cells were seeded in white half a rea 96-well plates (Greiner) and incubated for 48 h with inhibitors from DMSO stocks (final: 0.1% DMSO) under standard cultivation conditions. Then, the cell titer reagent was added to each well according to the manufacturer’s protocols, and luminescence was measured using a Tecan Spark 10 M plate reader.

## NC(N)=NCCn1cc(-c2c[nH]c3nc[nH]c(=O)c23)nn1 [Compound 8h]
[1]; 1, 10 and 100 μM, 24 h growth curves
  effect on S. aureus RN4220 growth: no pronounced effect on growth; also recorded: did not influence bacterial growth
[1]; Staphylococcus aureus, RN4220, 24 h (1440 min)
  MIC: > 100 µM
[2]
  effect on E. coli growth: no pronounced effect on growth
[3]
  CC50 at 48 h: > 100 µM

— article PMC12751012, “Nanoscale Direct-to-Biology Optimization and Structural Insights into Selective S. aureus TrmD Inhibitors” (Journal of Medicinal Chemistry, 2025)
